Earlier results in article PMC3400126 (Journal of Medicinal Chemistry, 2012).

How the values were obtained:
[1] = molecular target: T1, GCase N370S in spleen homogenate (Homo sapiens, UniProt P04062, N409S); conditions: 4MU-Glc substrate; cited from earlier work
T1 sequence (P04062 40-536 N409S): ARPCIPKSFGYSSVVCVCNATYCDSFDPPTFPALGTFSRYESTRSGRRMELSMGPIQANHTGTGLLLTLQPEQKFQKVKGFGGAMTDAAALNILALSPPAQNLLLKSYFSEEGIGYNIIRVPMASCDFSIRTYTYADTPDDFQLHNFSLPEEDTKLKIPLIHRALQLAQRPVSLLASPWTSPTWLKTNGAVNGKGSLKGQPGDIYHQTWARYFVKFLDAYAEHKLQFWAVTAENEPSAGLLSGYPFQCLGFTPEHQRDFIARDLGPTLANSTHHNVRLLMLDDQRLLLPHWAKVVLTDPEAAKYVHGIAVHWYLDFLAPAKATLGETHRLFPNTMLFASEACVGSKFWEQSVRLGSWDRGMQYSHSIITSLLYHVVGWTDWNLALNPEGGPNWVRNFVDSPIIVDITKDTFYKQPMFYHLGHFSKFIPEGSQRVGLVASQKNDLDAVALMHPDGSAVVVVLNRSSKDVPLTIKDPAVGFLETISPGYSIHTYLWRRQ

Purified GCase wt = conditions: read-out: Purified GCase wt IC50; 4MU-Glc substrate; cited from earlier work

SMILES | Spleen Homogenate N370S IC50 [1] | IC50 (Purified GCase wt) [nM]
COc1ccc(Cl)cc1Nc1nc(NCCO)nc(N2CCCC2)n1 [Compound 7] | completely inactive | –
CCc1nnc(NC(=O)c2ccc(NS(=O)(=O)c3ccccc3)cc2)s1 [Compound 9] | completely inactive | 100
